Laboratory results: patent US20170037088A1

Molecular target: GLP-1 receptor (UniProt P43220)
Assay: cell-based or functional assay

Row | Substance | EC50, real-time calcium mobilization (FLIPR) [nM] | EC50, real-time calcium mobilization (FLIPR); exendin-4 from Anaspec [nM] | EC50, real-time calcium mobilization (FLIPR); exendin-4 from Tocris [nM]
1 | exendin-4-Y576 | 0.098 | – | –
2 | native exendin-4 (peptide) | – | 0.075 | 0.11
